From patent publication US20220229068A1, “DETECTION OF PROTEIN TO PROTEIN INTERACTIONS” (THE GOVERNING COUNCIL OF THE UNIVERSITY OF TORONTO, priority 2019, published 2022)

Target: T1, EGFR/SHC1 interaction (Homo sapiens, UniProt P00533)
T1 construct: expressed in transfected cells; host or cells: HEK 293 / HEK 293 Flp-In T-Rex (Tet-on)
Experiment: SIMPL Western blot, EGFR/SHC1 interaction
Format: cell-based
Conditions: EGFR-IN/IC-SHC1, inhibitor added with tetracycline 6 h before assay

## COc1cc2ncnc(Nc3cccc(Cl)c3)c2cc1OC [AG1478]
  SIMPL signal (spliced EGFR-SHC1 band): diminished with increasing AG1478 concentration
Listed as AG147830
  SIMPL signal (spliced EGFR-SHC1 band): decrease of SIMPL signal
